Reference: US11466024B2, “Bicylic compound acting as an inhibitor” (CHIA TAI TIANQING PHARMACEUTICAL GROUP CO., LTD., priority 2017, dated 2022)
pEC50: −log10 of the molar value. Like-named read-outs stand apart in the source and are kept apart here. Values belong to the molecule of their own block, whether it stands above or below them.

The chains behind the UniProt entries cited, without tags or fusion partners. Residues count along the entry.
UniProt P51449, 269-508 limits assumed: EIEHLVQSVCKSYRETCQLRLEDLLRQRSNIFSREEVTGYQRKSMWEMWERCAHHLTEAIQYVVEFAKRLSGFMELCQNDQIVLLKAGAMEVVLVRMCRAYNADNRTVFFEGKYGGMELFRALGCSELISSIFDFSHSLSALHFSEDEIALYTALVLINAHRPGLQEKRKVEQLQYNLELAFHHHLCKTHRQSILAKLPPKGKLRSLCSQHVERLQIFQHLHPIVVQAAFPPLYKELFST

Molecular target: RORC2-LBD (Homo sapiens, UniProt P51449)
Test: In vitro test for inhibitory activity on RORγ: TR-FRET screening (RORC2-LBD / SRC1 peptide interaction)
[1] = read-out: Value of the concentration required for 50% inhibition (EC50) of RORγ, 15 nM RORc-LBD, 200 nM SRC1 peptide, 4° C. overnight, tested form: hydrochloride

- pEC50 [1]: > 7.00
Compound: CCS(=O)(=O)c1ccc([C@H](COC)NC(=O)c2cc3c(s2)C(C(C)C)N(C[C@H]2CC[C@H](C(F)(F)F)CC2)C3)cc1 (stereo partly shown)

- pEC50 (read-out: Value of the concentration required for 50% inhibition (EC50) of RORγ, 15 nM RORc-LBD, 200 nM SRC1 peptide, 4° C. overnight, tested form: HCl): > 7.00
- pEC50 [1]: > 7.00
Compound: CCS(=N)(=O)c1ccc(CNC(=O)c2cc3c(s2)[C@H](C(C)C)N(C[C@H]2CC[C@H](C(F)(F)F)CC2)C3)nc1 (single isomer, unassigned)

Compound: CCS(=O)(=O)c1ccc(CNC(=O)c2cc3c(o2)C(C(C)C)N(C[C@H]2CC[C@H](C(F)(F)F)CC2)C3)nc1 (single isomer, unassigned)
- pEC50 (read-out: Value of the concentration required for 50% inhibition (EC50) of RORγ, 15 nM RORc-LBD, 200 nM SRC1 peptide, 4° C. overnight, tested form: hydrochloride, listed as Example 5 (hydrochloride)): 5.30 to 6.00
- pEC50 (read-out: Value of the concentration required for 50% inhibition (EC50) of RORγ, 15 nM RORc-LBD, 200 nM SRC1 peptide, 4° C. overnight, tested form: hydrochloride, listed as Example 6 (hydrochloride)): > 7.00

- pEC50 (read-out: Value of the concentration required for 50% inhibition (EC50) of RORγ, 15 nM RORc-LBD, 200 nM SRC1 peptide, 4° C. overnight, tested form: hydrochloride, listed as Example 12 (hydrochloride)): > 7.00
- pEC50 (read-out: Value of the concentration required for 50% inhibition (EC50) of RORγ, 15 nM RORc-LBD, 200 nM SRC1 peptide, 4° C. overnight, tested form: hydrochloride, listed as Example 13 (hydrochloride)): 5.30 to 6.00
Compound: CCS(=O)(=O)c1ccc([C@H](CO)NC(=O)c2cc3c(s2)C(C(C)C)N(C[C@H]2CC[C@H](C(F)(F)F)CC2)C3)cc1 (single isomer, unassigned)
